molecular target: MC4 (Homo sapiens, UniProt P32245); details: read-out: MC4 Ki

Chains of the proteins cited; added tags and fusions are not shown.
UniProt P32245, whole entry: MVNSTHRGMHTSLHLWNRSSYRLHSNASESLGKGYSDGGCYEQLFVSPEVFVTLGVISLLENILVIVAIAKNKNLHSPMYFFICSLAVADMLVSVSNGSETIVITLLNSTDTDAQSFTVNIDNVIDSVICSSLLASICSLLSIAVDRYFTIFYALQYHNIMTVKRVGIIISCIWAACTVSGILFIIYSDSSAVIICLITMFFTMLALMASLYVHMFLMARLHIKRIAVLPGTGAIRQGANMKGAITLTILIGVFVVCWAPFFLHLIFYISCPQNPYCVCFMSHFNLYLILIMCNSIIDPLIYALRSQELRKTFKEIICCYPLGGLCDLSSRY

`CC(=O)N[C@@H](CCCNC(=N)N)C(=O)N[C@H]1CSSC[C@@H](C(N)=O)NC(=O)[C@H](Cc2c[nH]c3ccccc23)NC(=O)[C@H](CCCNC(=N)N)NC(=O)[C@@H](Cc2ccccc2)NC(=O)[C@H](Cc2c[nH]cn2)NC(=O)[C@H](CCC(=O)O)NC1=O` [Compound No. 48, Ac-Arg-cyclo[Cys-Glu-His-D-Phe-Arg-Trp-Cys]-NH2] was tested. Which Ki did it give?
The Ki was 430 pM.

With `N=C(N)NCCC[C@@H]1NC(=O)[C@@H](Cc2ccccc2)NC(=O)[C@H](Cc2c[nH]cn2)NC(=O)[C@@H](NC(=O)CCCc2ccccc2)CCSSC[C@@H](C(N)=O)NC(=O)[C@H](Cc2c[nH]c3ccccc23)NC1=O` [Compound No. 147, 4-phenylbutyryl-cyclo[hCys-His-D-Phe-Arg-Trp-Cys]-NH2] as the compound, how does the Ki read?
Its Ki is 70 pM.

Which Ki does the source give for `N=C(N)NCCC[C@@H]1NC(=O)[C@@H](Cc2ccc(Cl)cc2)NC(=O)[C@H](Cc2c[nH]cn2)NC(=O)[C@@H](N)CSSCC[C@@H](C(N)=O)NC(=O)[C@H](Cc2c[nH]c3ccccc23)NC1=O` [Compound No. 182, cyclo[Cys-His-(4-Cl-D-Phe)-Arg-Trp-hCys]-NH2] here?
The Ki was 890 pM.

For `CC(=O)N[C@@H](CCCNC(=N)N)C(=O)N[C@H]1CCSSC[C@@H](C(N)=O)NC(=O)[C@H](Cc2c[nH]c3ccccc23)NC(=O)[C@H](CCCNC(=N)N)NC(=O)[C@@H](Cc2ccccc2)NC(=O)[C@H](Cc2c[nH]cn2)NC1=O` [Compound No. 158, Ac-Arg-cyclo[hCys-His-D-Phe-Arg-Trp-Cys]-NH2], which Ki is on record?
Its Ki is 80 pM.

How did the Ki turn out when `CC(=O)N[C@@H](CCCNC(=N)N)C(=O)N[C@H]1CCSSC[C@@H](C(=O)O)NC(=O)[C@H](Cc2c[nH]c3ccccc23)NC(=O)[C@H](CCCNC(=N)N)NC(=O)[C@@H](Cc2ccccc2)NC(=O)[C@H](Cc2c[nH]cn2)NC1=O` [Compound No. 159, Ac-Arg-cyclo[hCys-His-D-Phe-Arg-Trp-Cys]-OH] was run?
The Ki was 740 pM.

For `CC(=O)N[C@@H](Cc1ccc(O)cc1)C(=O)N[C@@H](CCCNC(N)=O)C(=O)N[C@H]1CSSC[C@@H](C(N)=O)NC(=O)[C@H](Cc2c[nH]c3ccccc23)NC(=O)[C@H](CCCNC(=N)N)NC(=O)[C@@H](Cc2ccccc2)NC(=O)[C@H](Cc2cn(C)cn2)NC(=O)[C@H](CCC(=O)O)NC1=O` [Compound No. 125, Ac-Tyr-Cit-cyclo[Cys-Glu-(1-Me-His)-D-Phe-Arg-Trp-Cys]-NH2], which Ki is on record?
The Ki was 19900 pM.

Which Ki does the source give for `N=C(N)NCCC[C@@H]1NC(=O)[C@@H](Cc2ccccc2)NC(=O)[C@H](Cc2c[nH]cn2)NC(=O)[C@@H](NS(=O)(=O)c2ccccc2)CCSSC[C@@H](C(N)=O)NC(=O)[C@H](Cc2c[nH]c3ccccc23)NC1=O` [Compound No. 150, N-phenylsulfonyl-cyclo[hCys-His-D-Phe-Arg-Trp-Cys]-NH2] here?
Its Ki is 2350 pM.

How did the Ki turn out when `CC(=O)N[C@@H](CCCNC(=N)N)C(=O)N[C@H]1CSSC[C@@H](C(N)=O)NC(=O)[C@H](Cc2c[nH]c3ccccc23)NC(=O)[C@H](CCCNC(=N)N)NC(=O)[C@@H](Cc2ccc(Cl)cc2)NC(=O)[C@H](Cc2c[nH]cn2)NC(=O)[C@H](CCC(=O)O)NC1=O` [Compound No. 50, Ac-Arg-cyclo[Cys-Glu-His-(4-Cl-D-Phe)-Arg-Trp-Cys]-NH2] was run?
The Ki was 210 pM.

For `N=C(N)NCCC[C@@H](N)C(=O)N[C@H]1CCSSC[C@@H](C(N)=O)NC(=O)[C@H](Cc2c[nH]c3ccccc23)NC(=O)[C@H](CCCNC(=N)N)NC(=O)[C@@H](Cc2ccccc2)NC(=O)[C@H](Cc2c[nH]cn2)NC1=O` [Compound No. 154, D-Arg-cyclo[hCys-His-D-Phe-Arg-Trp-Cys]-NH2], which Ki is on record?
Its Ki is 210 pM.

`CC(=O)N[C@@H](Cc1ccc(O)cc1)C(=O)N[C@@H](CCCNC(=N)N)C(=O)N[C@H]1CSSC[C@@H](C(=O)N[C@@H](CCCCN)C(=O)N2CCC[C@H]2CO)NC(=O)[C@H](Cc2c[nH]c3ccccc23)NC(=O)[C@H](CCCNC(=N)N)NC(=O)[C@@H](Cc2ccccc2)NC(=O)[C@H](Cc2c[nH]cn2)NC(=O)[C@H](CCC(=O)O)NC1=O` [Compound No. 122, Ac-Tyr-Arg-cyclo[Cys-Glu-His-D-Phe-Arg-Trp-Cys]-Lys-Pro alcohol] was tested. Which Ki did it give?
The Ki was 300 pM.

How did the Ki turn out when `N=C(N)NCCC[C@@H]1NC(=O)[C@@H](Cc2ccccc2)NC(=O)[C@H](Cc2c[nH]cn2)NC(=O)[C@@H](NC(=O)CCNC(=N)N)CCSSC[C@@H](C(N)=O)NC(=O)[C@H](Cc2c[nH]c3ccccc23)NC1=O` [Compound No. 148, 3-guanidinopropionyl-cyclo[hCys-His-D-Phe-Arg-Trp-Cys]-NH2] was run?
Its Ki is 100 pM.

How did the Ki turn out when `CC1(C)SSCC[C@H](NC(=O)CCCNS(=O)(=O)c2ccccc2)C(=O)N[C@@H](Cc2c[nH]cn2)C(=O)N[C@H](Cc2ccccc2)C(=O)N[C@@H](CCCNC(=N)N)C(=O)N[C@@H](Cc2c[nH]c3ccccc23)C(=O)N[C@@H]1C(N)=O` [Compound No. 176, (4-benzenesulfonamide)butyryl-cyclo[hCys-His-D-Phe-Arg-Trp-penicillamine]-NH2] was run?
Its Ki is 490 pM.

`CC(=O)N[C@H](CCCNC(=N)N)C(=O)N[C@H]1CSSC[C@@H](C(N)=O)NC(=O)[C@H](Cc2c[nH]c3ccccc23)NC(=O)[C@H](CCCNC(=N)N)NC(=O)[C@@H](Cc2ccccc2)NC(=O)[C@H](Cc2c[nH]cn2)NC(=O)[C@H](CCC(=O)O)NC1=O` [Compound No. 52, Ac-D-Arg-cyclo[Cys-Glu-His-D-Phe-Arg-Trp-Cys]-NH2] was tested. Which Ki did it give?
Its Ki is 550 pM.

How did the Ki turn out when `N=C(N)NCCC[C@@H]1NC(=O)[C@@H](Cc2ccccc2)NC(=O)[C@H](Cc2c[nH]cn2)NC(=O)CCSSCC[C@@H](C(N)=O)NC(=O)[C@H](Cc2c[nH]c3ccccc23)NC1=O` [Compound No. 179, cyclo[3-thiopropionyl-His-D-Phe-Arg-Trp-hCys]-NH2] was run?
The Ki was 93500 pM.

Which Ki does the source give for `CC(=O)N[C@@H](Cc1ccc(O)cc1)C(=O)N[C@@H](CCCNC(=N)N)C(=O)N[C@H]1CSSC[C@@H](C(N)=O)NC(=O)[C@H](Cc2c[nH]c3ccccc23)NC(=O)[C@H](CCCNC(=N)N)NC(=O)[C@@H](Cc2ccccc2)NC(=O)[C@H](Cc2c[nH]cn2)NC(=O)[C@H](CC(=O)O)NC1=O` [Compound No. 7, Ac-Tyr-Arg-cyclo[Cys-Asp-His-D-Phe-Arg-Trp-Cys]-NH2] here?
The Ki was 820 pM.

For `CC(=O)N[C@@H](Cc1ccc(O)cc1)C(=O)N[C@@H](CCCNC(=N)N)C(=O)N[C@H]1CSSC[C@@H](C(N)=O)NC(=O)[C@H](Cc2c[nH]c3ccccc23)NC(=O)[C@H](CCCNC(=N)N)NC(=O)[C@@H](Cc2ccccc2)NC(=O)[C@H](Cc2c[nH]cn2)NC(=O)[C@H](CS(=O)(=O)O)NC1=O` [Compound No. 28, Ac-Tyr-Arg-cyclo[Cys-Cya-His-D-Phe-Arg-Trp-Cys]-NH2], which Ki is on record?
Its Ki is 1180 pM.

For `CC(=O)N[C@@H](Cc1ccc(O)cc1)C(=O)N[C@@H](CCCNC(=N)N)C(=O)N[C@H]1CSSC[C@@H](C(N)=O)NC(=O)[C@H](Cc2c[nH]c3ccccc23)NC(=O)[C@H](CCCNC(=N)N)NC(=O)[C@@H](Cc2ccccc2)NC(=O)[C@H](Cc2c[nH]cn2)NC(=O)[C@H](CC(N)=O)NC1=O` [Compound No. 5, Ac-Tyr-Arg-cyclo[Cys-Asn-His-D-Phe-Arg-Trp-Cys]-NH2], which Ki is on record?
Its Ki is 420 pM.

`CCCC[C@H](NC(C)=O)C(=O)N[C@H]1CCSSC[C@@H](C(N)=O)NC(=O)[C@H](Cc2c[nH]c3ccccc23)NC(=O)[C@H](CCCNC(=N)N)NC(=O)[C@@H](Cc2ccccc2)NC(=O)[C@H](Cc2c[nH]cn2)NC1=O` [Compound No. 160, Ac-nLeu-cyclo[hCys-His-D-Phe-Arg-Trp-Cys]-NH2] was tested. Which Ki did it give?
Its Ki is 50 pM.

Reference: patent publication US20070105759A1 (priority 2003, published 2007)
